## Apparent affinities of Ab-14 variants for a coronavirus HR2 peptide

Source: Engelhart et al. 2022 (doi:10.1038/s41597-022-01779-4), MIT Lincoln Laboratory and A-Alpha Bio; data file from the FLAb repository.

All variants were tested on one target, the spike HR2 peptide PDVDLGDISGINAS (SARS-CoV-2).

Ab-14 is the parent antibody, in scFv form: VH, then a 15-residue (Gly4Ser)3 linker, then VL. The heavy chain is unchanged in all variants.
VH: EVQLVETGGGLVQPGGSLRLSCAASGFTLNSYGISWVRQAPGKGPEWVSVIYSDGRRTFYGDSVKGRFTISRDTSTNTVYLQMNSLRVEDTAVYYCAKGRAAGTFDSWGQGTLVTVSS
VL: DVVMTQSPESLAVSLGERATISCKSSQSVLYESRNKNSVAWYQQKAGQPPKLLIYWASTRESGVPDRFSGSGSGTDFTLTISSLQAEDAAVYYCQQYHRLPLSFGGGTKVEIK

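Phage display of a naive human antibody library on the peptide gave the parent. The library (AAYL50) carries one to three amino acid substitutions per variant, with no insertions or deletions. The assay is AlphaSeq: two haploid yeast populations carry antibody and antigen on their surface. Binding brings cells together so that they mate, and sequencing counts the barcode pairs among the diploids. A regression on co-assayed BCL2-family reference pairs converts the normalised counts of each replicate to an apparent Kd. There are three technical replicates.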

Changes read parent residue, position, new residue, counted from the first residue of the VL shown. Values are log10 of the apparent Kd in nM; lower means stronger binding. The mean shown is taken over the replicates in which the pair was detected. Where no diploid with the target was found in any replicate, the entry reads "nd": below detection, most likely a poor binder, though not proof of it. Three control strains display no target. For library AAYL50, 18% of the pairings with them gave a signal, with a median of 4.19 and one signal in twenty below 2.99, so weak values seen in few replicates may be background. Also given: how often the same scFv was detected with the empty control strains.

changes | log10 Kd (nM), mean | seen in | empty controls
K24G S33R S38D | nd | 0 of 3 | 0 of 9
S25Q E61A R99K | nd | 0 of 3 | 0 of 9
N37A S58K R99Y | nd | 0 of 3 | 2 of 9
S26P A40H R60Y | nd | 0 of 3 | 0 of 9
W56I L100A P101A | 5.32 | 1 of 3 | 0 of 9
S26Y E32D V39P | nd | 0 of 3 | 5 of 9
L30P V39R Y97V | 5.27 | 3 of 3 | 5 of 9
Q27M S28I | 3.18 | 3 of 3 | 1 of 9
L30S S58P R60F | nd | 0 of 3 | 0 of 9
N35R A40C S58W | nd | 0 of 3 | 0 of 9
Q27W K36Y A57V | 2.76 | 3 of 3 | 0 of 9
S28A R34L A40R | nd | 0 of 3 | 0 of 9
Y31D S33C N37M | 1.68 | 3 of 3 | 2 of 9
R60G S62Y Q96L | nd | 0 of 3 | 0 of 9
S26R S58W | 4.44 | 1 of 3 | 0 of 9
K24W V29T W56V | 4.02 | 3 of 3 | 4 of 9
R34C V39Y S58Y | nd | 0 of 3 | 1 of 9
V29T S33A | 1.10 | 3 of 3 | 4 of 9
L30M S33M Y97N | 1.80 | 3 of 3 | 1 of 9
R34E T59R Q95R | nd | 0 of 3 | 3 of 9
S28P L30D T59G | 3.39 | 2 of 3 | 2 of 9
N35E V39C A57W | nd | 0 of 3 | 2 of 9
S25Y S28N | 0.52 | 3 of 3 | 1 of 9
Q27R W56K | nd | 0 of 3 | 0 of 9
Q27M S38D L100V | nd | 0 of 3 | 0 of 9
V29S Y31R S103L | 3.22 | 2 of 3 | 0 of 9
E32D A40W T59E | nd | 0 of 3 | 0 of 9
R34I N37P A57I | nd | 0 of 3 | 0 of 9
L30E P101T L102G | 0.76 | 3 of 3 | 0 of 9
K24N V39P R99L | nd | 0 of 3 | 1 of 9
E32C R34D Q96W | nd | 0 of 3 | 0 of 9
Y31F S62T P101Q | 1.11 | 3 of 3 | 4 of 9
K24A L30M L100E | nd | 0 of 3 | 2 of 9
E32K E61S | 4.61 | 2 of 3 | 3 of 9
S33D H98I L102M | 0.82 | 3 of 3 | 4 of 9
S26G E61C Q95G | 2.32 | 3 of 3 | 2 of 9
W56T P101N S103G | 0.49 | 3 of 3 | 1 of 9
R60F Y97S P101R | nd | 0 of 3 | 1 of 9
Y31A T59V E61Q | 1.08 | 3 of 3 | 1 of 9
V29K R99L S103C | 1.69 | 3 of 3 | 1 of 9
L30E K36S S38C | 2.12 | 3 of 3 | 1 of 9
S33E N37T | 2.10 | 3 of 3 | 1 of 9
S28C Q96D S103H | 3.43 | 3 of 3 | 3 of 9
S33G K36G S103L | 0.40 | 3 of 3 | 1 of 9
K24S Y31P T59L | 0.93 | 3 of 3 | 0 of 9
S26E Q27L A40E | 3.95 | 1 of 3 | 4 of 9
L30N S62T Q95R | nd | 0 of 3 | 0 of 9
K24W E32Q L100E | 2.34 | 3 of 3 | 0 of 9
Y31S R99G S103Y | 3.04 | 1 of 3 | 0 of 9
Y31G R34W N37K | 1.04 | 3 of 3 | 0 of 9
L30E W56T H98E | 1.07 | 3 of 3 | 2 of 9
Q27R S28T S62Y | 1.46 | 3 of 3 | 4 of 9
V39T R60I L102T | nd | 0 of 3 | 0 of 9
Q95S P101V S103K | 1.10 | 3 of 3 | 3 of 9
N37Q S58C Q96K | 5.20 | 1 of 3 | 2 of 9
Y31N S103L | 2.05 | 3 of 3 | 0 of 9
R34H Q96S | 1.96 | 3 of 3 | 0 of 9
S58M P101D | 2.04 | 3 of 3 | 6 of 9
E61V Q95Y S103K | nd | 0 of 3 | 0 of 9
S28I N35W | nd | 0 of 3 | 1 of 9
E32R R34D R99L | 3.57 | 1 of 3 | 1 of 9
S25I S26E K36D | 0.15 | 3 of 3 | 0 of 9
Q95A Q96H R99Q | nd | 0 of 3 | 1 of 9
Q27H R34S Q96V | 2.51 | 3 of 3 | 3 of 9
S26I N37W | 2.23 | 3 of 3 | 3 of 9

Repeated from above, the 9 best binders with a signal in all replicates:

changes	log10 Kd (nM), mean	seen in	empty controls
S25I S26E K36D	0.15	3 of 3	0 of 9
S33G K36G S103L	0.40	3 of 3	1 of 9
W56T P101N S103G	0.49	3 of 3	1 of 9
S25Y S28N	0.52	3 of 3	1 of 9
L30E P101T L102G	0.76	3 of 3	0 of 9
S33D H98I L102M	0.82	3 of 3	4 of 9
K24S Y31P T59L	0.93	3 of 3	0 of 9
Y31G R34W N37K	1.04	3 of 3	0 of 9
L30E W56T H98E	1.07	3 of 3	2 of 9

In this assay the parent's reference entry averaged 0.65; its copy inside this library read 1.68.